In paper PMC2987690 one finds percent of high-mannose β1 subunits bound to α1, YFP-β1-expressing cells data, which are given here for 1 substance.

This assay deals with Na,K-ATPase α1 subunit (endogenous, MDCK cells) (dog (endogenous in MDCK)) (UniProt P50997). In words: co-IP.

Take “Na,K-ATPase β1 subunit (endogenous, MDCK cells) (from UniProt P06583 1-303) (natural protein)”: the percent of high-mannose β1 subunits bound to α1, YFP-β1-expressing cells stood at 11%.
